# Antibody variant affinities, Ab-14 heavy chain, assay 1

Data: MIT Lincoln Laboratory AlphaSeq set, Engelhart et al. 2022, doi:10.1038/s41597-022-01779-4, as distributed in FLAb.

Antigen: PDVDLGDISGINAS, a 14-residue peptide of the SARS-CoV-2 spike HR2 region.

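The starting antibody came from a phage panning campaign against this peptide. In library AAYL49, one, two or three CDR residues were substituted; doubles and triples were drawn at random. The assay is AlphaSeq: two haploid yeast populations carry antibody and antigen on their surface. Mating (16 h, 30 °C) was followed by selection of diploids and sequencing of their barcodes. The ratio of observed to expected reads was calibrated, replicate by replicate, on BCL2-family standards whose Kd was known from biolayer interferometry. There are three technical replicates.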

Each scFv is VH, a (GGGGS)3 linker, VL, as in the parent Ab-14, and differs from it in the CDRs of the heavy chain only.
VH: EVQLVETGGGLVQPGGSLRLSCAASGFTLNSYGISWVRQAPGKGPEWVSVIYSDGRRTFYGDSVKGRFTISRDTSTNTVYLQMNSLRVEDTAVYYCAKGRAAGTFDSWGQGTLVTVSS
VL: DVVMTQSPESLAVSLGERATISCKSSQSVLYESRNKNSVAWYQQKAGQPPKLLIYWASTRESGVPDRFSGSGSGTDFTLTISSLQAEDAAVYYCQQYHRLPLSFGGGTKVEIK

Positions count from residue 1 of the parent VH; D106H puts H in place of D.
Every variant below is changed at D106 of the VH (sequential numbering).
Values are apparent Kd, the geometric mean of the replicates that gave a signal; lower means stronger binding.
"no signal" marks a missing value. The strain was present, yet no cells mated with the target were sequenced in any replicate, which points to weak or no binding.
In this assay the parent's reference entry averaged 4.4 nM; its copy inside this library read 13 µM (one replicate of three).

For D106H, the assay gave 3.3 nM (3 of 3 replicates; controls 0 of 9). The variant L29P T104V D106Q showed 90 µM (2 of 3 replicates; controls 0 of 9). The variant L29W N30Q D106S showed no signal (0 of 3 replicates; controls 0 of 9). The variant F59C G103P D106G showed no signal (0 of 3 replicates; controls 0 of 9). With Y32H D106Q the result was no signal (0 of 3 replicates; controls 0 of 9). For R100A D106F, the assay gave no signal (0 of 3 replicates; controls 1 of 9).

With R57I F59Y D106Q the result was no signal (0 of 3 replicates; controls 0 of 9). With S31I S53A D106G the result was 8.3 µM (3 of 3 replicates; controls 2 of 9). The variant S31E K65N D106W gave no signal (0 of 3 replicates; controls 1 of 9). The variant D62Q D106Y showed 95 nM (3 of 3 replicates; controls 0 of 9). For N30T K65Q D106C, the assay gave no signal (0 of 3 replicates; controls 0 of 9). For T28V S53L D106Y, the assay gave no signal (0 of 3 replicates; controls 0 of 9).

For S53A R56E D106H, the assay gave 230 nM (3 of 3 replicates; controls 2 of 9). For Y52L F105D D106S, the assay gave 1.8 µM (1 of 3 replicates; controls 5 of 9). For D54R G103T D106C, the assay gave no signal (0 of 3 replicates; controls 0 of 9). The variant L29A D106T S107N showed 4.3 µM (1 of 3 replicates; controls 2 of 9). For T28E V50E D106Q, the assay gave no signal (0 of 3 replicates; controls 1 of 9). For D106A, the assay gave 120 nM (3 of 3 replicates; controls 1 of 9).

With S63A A102E D106G the result was 720 nM (3 of 3 replicates; controls 1 of 9). With Y52S D106G the result was no signal (0 of 3 replicates; controls 0 of 9). With G55M D62F D106Y the result was 18 µM (1 of 3 replicates; controls 1 of 9). The variant N30K D54V D106E showed no signal (0 of 3 replicates; controls 0 of 9). For K65T A101V D106V, the assay gave 43 µM (2 of 3 replicates; controls 4 of 9). With D54W D106I the result was no signal (0 of 3 replicates; controls 1 of 9).

For I34Q Y52T D106K, the assay gave 93 µM (1 of 3 replicates; controls 1 of 9). With G33W V50T D106V the result was 420 nM (1 of 3 replicates; controls 0 of 9). The variant G33Q T104I D106G gave no signal (0 of 3 replicates; controls 0 of 9). For G55T D106E S107M, the assay gave no signal (0 of 3 replicates; controls 0 of 9). For Y32C R56F D106H, the assay gave 22 µM (3 of 3 replicates; controls 3 of 9). For L29C T104Y D106S, the assay gave 1.5 µM (2 of 3 replicates; controls 3 of 9).

The variant N30L Y60V D106I showed 650 nM (1 of 3 replicates; controls 0 of 9). With N30V A102E D106Y the result was no signal (0 of 3 replicates; controls 0 of 9).

Nonspecific signal, from three strains lacking the peptide, appeared in 15% of pairings of library AAYL49, centred on 11 µM (5% of these signals below 680 nM); values are not corrected for it. Also given: how often the same scFv was detected with the empty control strains.